The target in the experiment is T1, Translocator protein 18 kDa (TSPO) (Homo sapiens, UniProt P30536).
T1 construct: native TSPO in membranes of normal human astrocytes
Description: [3H]PK11195 saturation radioligand binding.

The chains behind the UniProt entries cited, without tags or fusion partners. Residues count along the entry.
UniProt P30536, 2-169: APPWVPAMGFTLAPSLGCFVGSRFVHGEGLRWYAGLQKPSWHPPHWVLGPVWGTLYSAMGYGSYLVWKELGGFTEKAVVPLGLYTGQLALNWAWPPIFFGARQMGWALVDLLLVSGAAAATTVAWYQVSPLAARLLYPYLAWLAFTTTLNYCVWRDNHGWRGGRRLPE

Each structure is given as a SMILES string. pKd: −log10 of the molar value.

A word on the pKd: it is the Kd on a negative log10 scale, so that one unit is a factor of ten. Higher therefore signals a small Kd. In turn, `CCC(C)N(C)C(=O)c1cc2ccccc2c(-c2ccccc2Cl)n1` (stereo not shown) [PK11195, 1-(2-chlorophenyl)-N-methyl-N-(1-methylpropyl)-3-isoquinoline carboxamide] had a pKd of 8.55.

These data come from paper PMC4964404, “TSPO PIGA Ligands Promote Neurosteroidogenesis and Human Astrocyte Well-Being” (International Journal of Molecular Sciences, 2016).
